The entries are a selection whose mix differs from that of the whole data set. The source made the active and inactive calls. No stated cut-off is given here; in the data, active means activity change below about -30%; inactive means the rest.
The molecules below were run against D(1A) dopamine receptor (Homo sapiens) (UniProt P21728) (assay: Antagonist of Human D 1 Dopamine Receptor: qHTS). Settings: HEK293 TREx D1 cells, calcium flux, dopamine EC80; at 10 µM; stronger effect = lower value.
Method in brief: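 HEK293 T-REx cells expressing inducible, force-coupled D1 receptor; no-wash Ca dye, 30–90 min RT. Cmpd → 180 s read at 1 Hz → EC80 DA → 180 s read.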
On the % scale 0 is the no-effect control and ±100 the full control effect.

Chains of the proteins cited; added tags and fusions are not shown.
UniProt P21728, whole entry: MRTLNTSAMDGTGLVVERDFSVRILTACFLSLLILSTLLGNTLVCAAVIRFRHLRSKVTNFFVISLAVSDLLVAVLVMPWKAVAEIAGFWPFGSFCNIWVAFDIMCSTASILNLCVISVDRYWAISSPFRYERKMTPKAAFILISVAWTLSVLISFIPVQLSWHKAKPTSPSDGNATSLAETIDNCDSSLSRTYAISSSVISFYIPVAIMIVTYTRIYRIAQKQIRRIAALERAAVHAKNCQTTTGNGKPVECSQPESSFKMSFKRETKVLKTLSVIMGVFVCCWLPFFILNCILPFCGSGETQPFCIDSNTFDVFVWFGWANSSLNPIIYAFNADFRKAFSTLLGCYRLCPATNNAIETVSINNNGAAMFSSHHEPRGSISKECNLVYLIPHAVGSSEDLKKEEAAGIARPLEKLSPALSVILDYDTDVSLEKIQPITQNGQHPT

Structure (SMILES)	activity change, negative = inhibition
CN(C)C(=O)c1c([N+](=O)[O-])cc([N+](=O)[O-])cc1[N+](=O)[O-]	inactive: 1.38%
CCOC(=O)c1ccc(NP(C)(=O)Oc2ccc(Cl)cc2)cc1 (stereo not given)	inactive: -8.12%
CP(=O)(OC12CC3CC(CC(C3)C1)C2)OC12CC3CC(CC(C3)C1)C2	inactive: 12.6%
COc1ccc(OP(C)(=O)Nc2cccc(Br)c2)cc1 (stereo not given)	inactive: -9.29%
CN(C)CCOC(=O)C(O)(c1ccccc1)C1CCCCC1 (stereo not given)	inactive: 13.7%
COc1ccc(NP(C)(=O)Oc2ccccc2OC)cc1 (stereo not given)	inactive: 13.1%
O=[N+]([O-])c1ccc(OP2(=O)COCCO2)cc1 (stereo not given)	inactive: -10.3%
Cc1cc(-c2cccc3ccccc23)c(C)cn1.O=[N+]([O-])c1cc([N+](=O)[O-])c(O)c([N+](=O)[O-])c1	inactive: -18.9%
CP(=O)(Nc1ccc(SC(F)(F)F)cc1)Oc1ccc(F)cc1 (stereo not given)	inactive: -17.9%
CCOP(C)(=S)SCC(=O)NC(C)(CC)C(=O)O (stereo not given)	inactive: -4.99%
CP(=O)(Nc1ccc2c(c1)OCCO2)Oc1ccccc1 (stereo not given)	inactive: -5.21%
Cc1ccccc1NP(C)(=O)Nc1ccccc1C	inactive: 7.18%
CP(=O)(Nc1ccccc1F)Oc1ccccc1 (stereo not given)	inactive: -9.02%
CC(C)c1ccc(OP(C)(=O)Nc2ccc(SC(F)(F)F)cc2)cc1 (stereo not given)	inactive: 20.7%
O=C(OCCN1CCN(CCOCc2ccccc2)CC1)C(O)(c1ccccc1)c1ccccc1	inactive: 0.113%
CCOC(=O)c1ccc(NP(C)(=O)Oc2ccc(F)cc2)cc1 (stereo not given)	inactive: -16.7%
COc1ccc(OP(C)(=O)Nc2ccc(SC(F)(F)F)cc2)cc1 (stereo not given)	inactive: 4.9%
CCN(CC)CCCOC(=O)C(O)(c1ccccc1)C1CCCCC1 (stereo not given)	inactive: -1.36%
CP(=O)(Nc1ccccc1)Oc1ccc(F)cc1 (stereo not given)	inactive: -25.2%
CCCCCOc1ccc(NP(C)(=O)Oc2ccc(Cl)cc2Cl)cc1 (stereo not given)	inactive: 10.4%

— PubChem BioAssay AID504652 (National Center for Advancing Translational Sciences (NCATS), 2011)
